Experimental data reported in patent US20160264639A1.

Biological target: FSHR (FSH receptor of CHO-FSHR cells)
Assay: cell-based or functional assay

Substance: bFSH-5R analog (bovine FSH with 5R substitutions K15R+K17R+E18R+K2OR+K24R in the alpha subunit) (from UniProt P04837 21-129) (ligand)
- potency in cAMP-based in vitro bioassay (CHO-FSHR cells), fold against controls: 3 to 4 fold
